Key:
[1] = biological target: T1, Eukaryotic translation initiation factor 2-alpha kinase 3 (Homo sapiens, UniProt Q9NZJ5); experiment: Inhibition of PERK (unknown origin)
T1 sequence (Q9NZJ5 whole entry): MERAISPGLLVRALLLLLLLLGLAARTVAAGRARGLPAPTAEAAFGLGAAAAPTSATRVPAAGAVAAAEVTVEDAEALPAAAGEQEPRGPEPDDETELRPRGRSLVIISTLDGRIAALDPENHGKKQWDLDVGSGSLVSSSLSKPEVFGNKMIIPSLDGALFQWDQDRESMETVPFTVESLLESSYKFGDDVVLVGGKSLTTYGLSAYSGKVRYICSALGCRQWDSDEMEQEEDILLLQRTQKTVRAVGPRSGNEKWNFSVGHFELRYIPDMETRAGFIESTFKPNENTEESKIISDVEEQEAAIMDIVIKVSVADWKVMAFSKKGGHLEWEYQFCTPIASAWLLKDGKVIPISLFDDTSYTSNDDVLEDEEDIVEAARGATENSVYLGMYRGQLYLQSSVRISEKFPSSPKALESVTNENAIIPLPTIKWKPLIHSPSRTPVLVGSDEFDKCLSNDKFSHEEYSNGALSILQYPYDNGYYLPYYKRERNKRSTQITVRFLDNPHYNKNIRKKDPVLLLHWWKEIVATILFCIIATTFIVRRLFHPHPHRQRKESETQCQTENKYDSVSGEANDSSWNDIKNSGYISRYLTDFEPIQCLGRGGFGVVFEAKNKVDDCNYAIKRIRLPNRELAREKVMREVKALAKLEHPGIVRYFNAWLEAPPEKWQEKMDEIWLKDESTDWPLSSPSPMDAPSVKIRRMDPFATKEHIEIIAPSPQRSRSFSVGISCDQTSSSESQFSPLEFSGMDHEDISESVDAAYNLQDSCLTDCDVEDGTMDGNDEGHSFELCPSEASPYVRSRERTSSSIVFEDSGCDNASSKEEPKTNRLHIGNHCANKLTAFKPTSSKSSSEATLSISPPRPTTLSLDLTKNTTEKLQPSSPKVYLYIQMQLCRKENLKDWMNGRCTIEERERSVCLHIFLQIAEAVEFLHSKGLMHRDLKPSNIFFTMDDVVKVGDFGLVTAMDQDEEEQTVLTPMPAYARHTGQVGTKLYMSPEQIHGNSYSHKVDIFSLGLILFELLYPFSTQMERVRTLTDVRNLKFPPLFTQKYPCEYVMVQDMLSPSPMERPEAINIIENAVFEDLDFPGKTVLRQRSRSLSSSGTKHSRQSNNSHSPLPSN

Protein sequences, listed by entry. Tags and fused reporters are not part of them. Lines headed by an entry give the natural chain unless they say otherwise; changes in a name come on top.
UniProt P53779: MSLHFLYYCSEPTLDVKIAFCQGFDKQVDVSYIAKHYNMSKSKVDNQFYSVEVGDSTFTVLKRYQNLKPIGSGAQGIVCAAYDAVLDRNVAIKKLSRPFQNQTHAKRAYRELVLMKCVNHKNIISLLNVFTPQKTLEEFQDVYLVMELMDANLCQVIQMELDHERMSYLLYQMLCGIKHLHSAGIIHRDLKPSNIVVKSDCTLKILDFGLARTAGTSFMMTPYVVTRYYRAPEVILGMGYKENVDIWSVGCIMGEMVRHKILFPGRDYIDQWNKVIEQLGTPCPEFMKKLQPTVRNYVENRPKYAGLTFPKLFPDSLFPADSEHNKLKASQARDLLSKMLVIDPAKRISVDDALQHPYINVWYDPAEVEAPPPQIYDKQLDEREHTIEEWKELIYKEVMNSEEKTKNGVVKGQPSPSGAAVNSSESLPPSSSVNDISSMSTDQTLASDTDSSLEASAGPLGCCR

[2] = biological target: Mitogen-activated protein kinase 10 (Homo sapiens, UniProt P53779); experiment: Inhibition of JNK3 (unknown origin)

IC50 [1] | IC50 [2] | SMILES
< 15 nM |  | Nc1ncc(-c2cccnc2)c2scc(-c3ccc4c(c3)CCN4C(=O)Cc3ccccc3)c12
 | 13 nM | CN(C)C/C=C/C(=O)Nc1cccc(C(=O)Nc2ccc(Nc3nccc(-c4cccnc4)n3)cc2)c1

Source: ChEMBL document CHEMBL5252509, “In depth analysis of kinase cross screening data to identify chemical starting points for inhibition of the Nek family of kinases” (Medchemcomm, 2018)
